In patent publication US20230295110A1, “PHD INHIBITOR COMPOUNDS, COMPOSITIONS, AND METHODS OF USE” (Akebia Therapeutics, Inc., priority 2020, published 2023) one finds Km data, which are given here for one molecule.

The chains behind the UniProt entries cited, without tags or fusion partners. Where a name states a change or a piece, a line headed by the entry shows the natural chain unless it says otherwise.
UniProt Q9GZT9: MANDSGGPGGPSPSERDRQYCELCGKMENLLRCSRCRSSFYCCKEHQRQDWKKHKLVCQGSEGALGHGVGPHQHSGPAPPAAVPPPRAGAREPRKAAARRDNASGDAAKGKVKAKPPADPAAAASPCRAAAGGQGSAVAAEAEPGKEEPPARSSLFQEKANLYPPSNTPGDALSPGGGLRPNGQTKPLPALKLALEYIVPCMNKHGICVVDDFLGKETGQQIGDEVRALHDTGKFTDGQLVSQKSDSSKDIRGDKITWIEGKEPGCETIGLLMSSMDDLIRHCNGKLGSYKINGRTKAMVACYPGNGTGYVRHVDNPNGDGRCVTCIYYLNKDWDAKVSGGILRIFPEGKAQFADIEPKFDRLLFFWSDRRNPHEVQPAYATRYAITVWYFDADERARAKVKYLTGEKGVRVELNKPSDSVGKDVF

SMILES strings stand for the structures.

The assay deals with full-length human PHD2 (Homo sapiens (Human), UniProt Q9GZT9). Nature of the assay: TR-FRET assay for PHD enzymes, PHD2. Conditions: read-out: Km of 2-OG for PHD2. On the technique in general: TR-FRET usually uses a lanthanide donor and a delayed reading to cut background.

For the molecule `O=C(O)CCC(=O)C(=O)O` [Compound 2-OG, 2-oxoglutarate, reference compound], the Km amounted to 0.0226 µM.

By Km is commonly meant the concentration of substrate that gives half-maximal velocity.
